# According to PubChem BioAssay AID504558 (Broad Institute, 2011):
# This is a selection; strong and weak results do not stand in their true shares. Activity calls are given as the source filed them. Rule as the data show it: active = inhibition above about 41%; inconclusive = no clear call, values can overlap the other calls; inactive = below that.
# Test: EBV LMP1-driven NF-kappaB luciferase reporter inhibitors, primary screen, cell-based, luminescence, single point (AID 504558);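 also: 0% = neutral control wells and 100% = reference inhibitor control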
# Conditions: LMP1-induced NF-kappaB luciferase reporter cells, at 12.5 µM, stronger effect = higher value
row,SMILES,inhibition
1,Cc1ccccc1NP(C)(=O)Nc1ccccc1C,inactive: 1.93%
2,CP(=O)(Nc1ccc2c(c1)OCCO2)Oc1ccccc1 (stereo not drawn),inactive: 18.6%
3,CCOP(C)(=S)SCC(=O)NC(C)(CC)C(=O)O (stereo not drawn),inactive: -0.312%
4,CP(=O)(Nc1ccc(SC(F)(F)F)cc1)Oc1ccc(F)cc1 (stereo not drawn),inactive: 4.59%
5,Cc1c(C(c2ccc3c(c2)OCO3)c2c(C)n(C)n(-c3ccccc3)c2=O)c(=O)n(-c2ccccc2)n1C.O=[N+]([O-])c1cc([N+](=O)[O-])c(O)c([N+](=O)[O-])c1,inactive: -0.0635%
6,O=[N+]([O-])c1ccc(OP2(=O)COCCO2)cc1 (stereo not drawn),inactive: -8.72%
7,O=[N+]([O-])c1cc([N+](=O)[O-])c(NCC2CCS(=O)(=O)C2)c([N+](=O)[O-])c1 (stereo not drawn),inactive: 6.32%
8,Cc1cc(-c2cccc3ccccc23)c(C)cn1.O=[N+]([O-])c1cc([N+](=O)[O-])c(O)c([N+](=O)[O-])c1,inactive: -9.11%
9,CN(C)CCOC(=O)C(O)(c1ccccc1)C1CCCCC1 (stereo not drawn),inactive: -13.4%
10,COc1ccc(NP(C)(=O)Oc2ccccc2OC)cc1 (stereo not drawn),inactive: -0.793%
11,COc1ccc(OP(C)(=O)Nc2cccc(Br)c2)cc1 (stereo not drawn),inactive: -0.542%
12,CCOC(=O)c1ccc(NP(C)(=O)Oc2ccc(Cl)cc2)cc1 (stereo not drawn),inactive: -49%
13,CP(=O)(OC12CC3CC(CC(C3)C1)C2)OC12CC3CC(CC(C3)C1)C2,inactive: -8.47%
14,CN(C)C(=O)c1c([N+](=O)[O-])cc([N+](=O)[O-])cc1[N+](=O)[O-],inactive: -0.186%
15,COc1ccccc1OP(C)(=O)Nc1ccccc1Br (stereo not drawn),inactive: -3.58%
16,CC(C)(C)c1ccc(OP(C)(=O)O)cc1,inactive: 2.99%
17,CP(=O)(Nc1ccc(Cl)cc1)Oc1ccc(F)cc1 (stereo not drawn),inactive: -1.34%
18,O=C(OCCCN1CCCC1)C(O)(c1ccccc1)C1CCCCC1 (stereo not drawn),inactive: -3.58%
19,COc1ccccc1OP(C)(=O)Nc1c(C)n(C)n(-c2ccccc2)c1=O (stereo not drawn),inactive: -0.164%

row,SMILES,inhibition
1,CCc1ccc(OP(C)(=O)Nc2cccnc2)cc1 (stereo not drawn),inactive: -1.21%
2,CP(=O)(Oc1ccccc1)N1CCOC1=O (stereo not drawn),inactive: -9.37%
3,COc1ccc(OP(C)(=O)Nc2ccc(Br)cc2)cc1 (stereo not drawn),inactive: -13%
4,CCN(CC)CC(O)COC(=O)C(O)(c1ccccc1)C1CCCCC1 (stereo not drawn),inactive: 1.42%
5,COc1ccccc1OP(C)(=O)Nc1ccc(C)cc1C (stereo not drawn),inactive: -7.78%
6,CP(=O)(Nc1ccccn1)Oc1ccccc1 (stereo not drawn),inactive: -6.63%
7,CCc1ccc(OP(C)(=O)O)cc1,inactive: -3.42%
8,Cc1c(NP(C)(=O)Oc2ccc(C(C)C)cc2)c(=O)n(-c2ccccc2)n1C (stereo not drawn),inactive: -15.2%
9,O=[N+]([O-])c1cc([N+](=O)[O-])c(Nc2ccccn2)c([N+](=O)[O-])c1,inactive: -5.46%
10,COc1ccc(OP(C)(=O)Nc2ccccn2)cc1 (stereo not drawn),inactive: -4.28%
11,CN(C)CCOC(=O)C(O)(c1ccccc1)C1CCCC1 (stereo not drawn),inactive: -15.8%
12,COc1ccccc1OP(C)(=O)Nc1ccc(Br)cc1 (stereo not drawn),inactive: -5.61%
13,CP(=O)(Nc1ccc(Cl)cc1Cl)Oc1ccccc1 (stereo not drawn),inactive: -1.04%
14,CCCCCCCCCCCCCCCC1C[N+](C)(C)CCOP(C)(=O)O1 (stereo not drawn),inactive: 28.7%
15,CP(=O)(OCCOc1ccccc1)OCCOc1ccccc1,inactive: 4.09%
16,COc1ccccc1OP(C)(=O)Nc1ccc(C)c(C)c1 (stereo not drawn),inactive: 1.41%
17,COc1ccc(OP(C)(=O)Nc2ccccc2Br)cc1 (stereo not drawn),inactive: -2.92%
18,Cc1cc(C)cc(OP(C)(=O)Nc2cccc(C(F)(F)F)c2)c1 (stereo not drawn),inactive: 4.38%
19,O=C1C(O)=C([N+](=O)[O-])C(=O)C(O)=C1[N+](=O)[O-],inactive: 5.73%
